# Columns and labels:
# [1] = test system: patients with essential tremor; test: T-CALM: Patient Global Impression of Change (PGIC); type: in vivo, human; conditions: Day 15, total 39
# Text: Global rating of change (GRC) scales were designed to quantify a patient's improvement or deterioration over time, usually either to determine the effect of an intervention or to chart the clinical course of a condition. GRC scales ask a patient to assess his or her current health status, recall that status at the beginning of treatment, and then calculate the difference between the two. The simplicity of GRC scales makes them easy to administer and applicable to a wide range of patients (see, e.g., Kamper et al., 2009 The Journal of Manual & Manipulative Therapy 17(3):163-170).
# Treatment success as measured by PGIC was summarized using descriptive statistics.
# The Patient Global Impression of Change (PGIC) will quantify a patient's impression of improvement or decline over time with respect to ET treatment (see, e.g., Guy, Assessment Manual for Psychopharmacology. Rockville, MD: Department of Health, Education, and Welfare Public Health Service Alcohol, Drug Abuse, and Mental Health Administration, 1976). The patient will use the PGIC scale to assess current health status versus initiation of treatment and calculate the difference. The 7-point scale will ask the question, “With respect to your ET, how would you describe yourself now compared to when you started taking the study drug?” The patient replies with one of 7 answers from very much worse to very much improved.
# [2] = test system: patients with essential tremor; test: T-CALM: Clinical Global Impression of Improvement (CGI-I); type: in vivo, human
# Text: The Clinical Global Impressions Scale (CGI) was developed for use in NIMH-sponsored clinical trials to provide a brief, stand-alone assessment of the clinician's view of a patient's global functioning before and after initiating a study medication (Guy (ed.), ECDEU Assessment Manual for Psychopharmacology. Rockville, MD: US Department of Health, Education, and Welfare Public Health Service Alcohol, Drug Abuse, and Mental Health Administration; 1976). The CGI is a summary measure that takes into account all available information, including knowledge of the patient's history, psychosocial circumstances, symptoms, behavior, and the impact of the symptoms on the patient's ability to function. The CGI has two forms—the CGI-Severity, which rates illness severity at baseline, and the CGI-Improvement, which rates change from baseline.
# The CGI-I consists of a single 7-point rating of total improvement or change from baseline CGI-S, regardless of whether or not the change is due entirely to drug treatment.
# Treatment success as measured by CGI-I was summarized using descriptive statistics.
# The Clinical Global Impressions Scale (CGI) generates a clinician's perception of a patient's functioning prior to and after study medication (see, e.g., Guy, Assessment Manual for Psychopharmacology. Rockville, MD: Department of Health, Education, and Welfare Public Health Service Alcohol, Drug Abuse, and Mental Health Administration, 1976). The CGI overall score considers patient history, psychosocial situations, symptoms and behavior with respect to the ability to function. The CGI-Improvement (CGI-I) will involve a single 7-point rating of total improvement or change from baseline CGI-Severity (CGI-S). The clinician rater will select one response (from 1=very much improved to 7=very much worse) based upon the question, “Compared to your patient's condition at the onset of treatment, how much has your patient changed?”
# [3] = test system: patients with essential tremor; test: T-CALM: TETRAS performance subscale (TETRAS-PS); conditions: Day 15, N 39
# [4] = Healthy volunteer PK studies PN001/PN002 with IR capsules; type: in vivo, human
compound,measurement,setting,value
CC(C)c1ccc(CC(=O)N[C@H](C)c2ccc(OCC(F)(F)F)cn2)cc1 [CX-8998],"PGIC: Improved, number of subjects",[1],26
same,"responders: improvement by CGI-I, number","[2]; Day 15, N 39",25
same,"responders: improvement by CGI-I, number","[2]; Day 28, N 37",24
same,"CGI-I: Improved, number of subjects","[2]; Day 28, total 37",24
same,"responders: improvement of at least 5 points by TETRAS-PS score, number",[3],12
same,t1/2,[4]; Average of the single-dose studies (dose 16),18.4 h
same,t1/2,"[4]; PN001 Part 1, 16 mg, 1 dose",14.3 h
same,t1/2,"[4]; PN001 Part 2, 18 mg, 1 dose",14.8 h
same,t1/2,"[4]; PN002 Part 1, 18 mg, 1 dose",26.1 h
same,t1/2,"[4]; PN002 Part 2, 12 mg, 1 dose",18.4 h
same,AUC0-24,"[4]; PN002 Part 2, 12 mg, 7 doses",6.1 µM·h
same,t1/2,"[4]; PN002 Part 2, 12 mg, 7 doses",14.2 h

# — US12383539B2 (Cavion, Inc., priority 2018, dated 2025)
